# Experimental data as given in PubChem BioAssay AID463193 (University of Pittsburgh Molecular Library Screening Center, 2010).
# This is a selection; strong and weak results do not stand in their true shares. Some tests of the compounds listed are not included; inactive here does not mean inactive elsewhere. Active and inactive are the calls of the source.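 Rule for the calls: active = percentage of spot-positive cells more than 3 SD above its plate mean, without a fluorescence outlier flag or 80% toxicity; inconclusive = no clear call, values can overlap the other calls; inactive = the rest.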
# Test: GFP-LC3 puncta formation changes – imaging, high-content, MEF GFP-LC3, primary screen (AID 463193);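 note: spot-positive cell cutoff set from DMSO-treated cells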
# Conditions: autophagy, at 10 µM, active compounds read high
row,Structure (SMILES),% cells with GFP-LC3 spots
1,O=C(NCC1(N2CCCCC2)CCCCC1)c1cc([N+](=O)[O-])ccc1Cl,inactive: 0.53%
2,CC(C)N1C(=O)CC2(CCN(CCOC(=O)C(O)(c3ccccc3)c3ccccc3)CC2)C1=O,inactive: 5.56%
3,CN(C)C1CCCC1OC(=O)C(O)(c1ccccc1)c1ccccc1 (centres undefined),inactive: 7.51%
4,Cc1ccccc1C(=O)NCC1(N2CCCCC2)CCCCC1,inactive: 1.65%
5,CCN1CCCC(OC(=O)C2(O)c3ccccc3C=Cc3ccccc32)C1 (centres undefined),inactive: 8.01%
6,C=CCN1CCN(CCOC(=O)C(O)(c2ccccc2)c2ccccc2)CC1,inactive: 1.41%
7,COc1cccc(C(=O)NCC2(N3CCCCC3)CCCCC2)c1,inactive: 2.92%
8,O=C(OC1CN2CCC1CC2)C(CO)(c1ccccc1)c1ccccc1 (centres undefined),inactive: 8%
9,CN(C)c1cccc(C(=O)NCC2(N(C)C)CCCCC2)c1,inactive: 7.77%
